Columns and labels:
[1] = species: Homo sapiens; test: Selectivity for human alpha-1B adrenergic receptor over human Alpha-1D adrenergic receptor
[2] = target: Adrenergic receptors; alpha-1 A & B (Homo sapiens) (UniProt P35348+P35368); test: Selectivity for human alpha-1B adrenergic receptor over human alpha1A adrenergic receptor; format: protein assay

Protein sequences, listed by entry. Tags and fused reporters are not part of them. Lines headed by an entry give the natural chain unless they say otherwise; changes in a name come on top.
UniProt P35348: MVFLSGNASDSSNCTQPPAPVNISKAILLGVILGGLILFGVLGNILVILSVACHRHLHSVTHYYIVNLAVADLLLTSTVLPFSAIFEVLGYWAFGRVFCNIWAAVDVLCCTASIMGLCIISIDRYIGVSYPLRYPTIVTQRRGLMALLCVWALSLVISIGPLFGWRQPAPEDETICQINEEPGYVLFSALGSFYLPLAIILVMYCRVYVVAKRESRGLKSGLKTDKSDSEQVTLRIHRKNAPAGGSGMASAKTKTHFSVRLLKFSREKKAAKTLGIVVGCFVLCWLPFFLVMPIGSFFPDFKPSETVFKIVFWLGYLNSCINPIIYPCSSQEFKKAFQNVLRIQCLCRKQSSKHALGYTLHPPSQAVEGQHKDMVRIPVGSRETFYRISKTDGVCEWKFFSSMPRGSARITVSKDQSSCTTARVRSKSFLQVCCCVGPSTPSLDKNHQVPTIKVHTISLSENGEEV
UniProt P35368, whole entry, looked up: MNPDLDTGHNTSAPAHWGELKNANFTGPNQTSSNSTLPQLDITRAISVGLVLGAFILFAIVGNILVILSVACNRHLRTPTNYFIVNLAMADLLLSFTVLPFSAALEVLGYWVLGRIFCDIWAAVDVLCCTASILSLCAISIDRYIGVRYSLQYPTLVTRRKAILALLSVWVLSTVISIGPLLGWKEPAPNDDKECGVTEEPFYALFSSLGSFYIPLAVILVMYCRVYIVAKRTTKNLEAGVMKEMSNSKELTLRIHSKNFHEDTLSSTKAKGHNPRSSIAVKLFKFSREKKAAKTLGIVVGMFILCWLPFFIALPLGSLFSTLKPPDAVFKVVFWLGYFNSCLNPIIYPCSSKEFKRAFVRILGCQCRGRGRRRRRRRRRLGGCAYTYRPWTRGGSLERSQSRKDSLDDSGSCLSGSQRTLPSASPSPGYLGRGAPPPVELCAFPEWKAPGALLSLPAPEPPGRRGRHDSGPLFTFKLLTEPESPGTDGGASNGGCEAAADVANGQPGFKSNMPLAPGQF

## CC(C)Oc1ccccc1N1CCN(C2CCC(NS(=O)(=O)c3cccc(F)c3)CC2)CC1 (configuration not stated)
[1]
  Ratio Ki: 33
[2]
  Ratio Ki: 23
